# Molecular target: T1, cAMP and cAMP-inhibited cGMP 3',5'-cyclic phosphodiesterase 10A (Rattus norvegicus, UniProt Q9QYJ6)
# T1 sequence (Q9QYJ6 whole entry): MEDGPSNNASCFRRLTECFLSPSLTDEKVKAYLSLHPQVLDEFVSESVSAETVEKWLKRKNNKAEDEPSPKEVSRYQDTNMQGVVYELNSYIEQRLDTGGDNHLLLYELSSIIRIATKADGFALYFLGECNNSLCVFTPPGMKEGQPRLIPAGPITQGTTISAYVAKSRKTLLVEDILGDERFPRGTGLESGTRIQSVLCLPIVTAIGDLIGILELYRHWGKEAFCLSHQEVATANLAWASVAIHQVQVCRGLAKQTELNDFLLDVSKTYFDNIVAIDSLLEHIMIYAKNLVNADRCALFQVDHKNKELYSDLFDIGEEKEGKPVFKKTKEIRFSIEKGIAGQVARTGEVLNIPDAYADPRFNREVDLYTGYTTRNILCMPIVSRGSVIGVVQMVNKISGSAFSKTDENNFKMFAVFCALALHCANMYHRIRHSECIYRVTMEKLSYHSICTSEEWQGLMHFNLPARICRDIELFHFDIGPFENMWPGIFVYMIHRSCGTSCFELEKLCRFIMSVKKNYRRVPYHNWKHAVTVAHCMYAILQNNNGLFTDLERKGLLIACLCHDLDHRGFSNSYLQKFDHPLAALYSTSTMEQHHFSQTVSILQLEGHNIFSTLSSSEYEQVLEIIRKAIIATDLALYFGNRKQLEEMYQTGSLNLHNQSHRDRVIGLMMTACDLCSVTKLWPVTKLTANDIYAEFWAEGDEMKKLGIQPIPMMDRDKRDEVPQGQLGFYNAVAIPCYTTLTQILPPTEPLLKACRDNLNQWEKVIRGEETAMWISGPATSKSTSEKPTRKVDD
# Test: Enzyme Inhibition Assay: Enzyme activity: An IMAP TR-FRET assay was used to analyze the enzyme activity (Molecular Devices Corp., Sunnyvale, Calif).
row,IC50 [nM],Compound
1,43.4,OCC1CCN(c2nccnc2OC2CN(c3ccc4ccccc4n3)C2)C1 (centres undefined)
2,1720,Cc1cccnc1N1CCC(Oc2nccnc2C2CCOCC2)CC1
3,109,c1ccc2nc(N3CC(Oc4nccnc4N4CC5CCC4C5)C3)ccc2c1 (centres undefined)

row,Compound,IC50 [nM]
1,Oc1ccc(N2CCC(Oc3ncccc3C3CCOCC3)CC2)nc1,1100
